Earlier results on one compound are cited in patent US9611289B2, “Farnesoid X receptor modulators” (Intercept Pharmaceuticals, Inc., priority 2013, dated 2017).

Amino acid sequences for entries named in this document (tags omitted). A change or cut given only in a name is not applied to a line headed by its entry.
UniProt Q12809: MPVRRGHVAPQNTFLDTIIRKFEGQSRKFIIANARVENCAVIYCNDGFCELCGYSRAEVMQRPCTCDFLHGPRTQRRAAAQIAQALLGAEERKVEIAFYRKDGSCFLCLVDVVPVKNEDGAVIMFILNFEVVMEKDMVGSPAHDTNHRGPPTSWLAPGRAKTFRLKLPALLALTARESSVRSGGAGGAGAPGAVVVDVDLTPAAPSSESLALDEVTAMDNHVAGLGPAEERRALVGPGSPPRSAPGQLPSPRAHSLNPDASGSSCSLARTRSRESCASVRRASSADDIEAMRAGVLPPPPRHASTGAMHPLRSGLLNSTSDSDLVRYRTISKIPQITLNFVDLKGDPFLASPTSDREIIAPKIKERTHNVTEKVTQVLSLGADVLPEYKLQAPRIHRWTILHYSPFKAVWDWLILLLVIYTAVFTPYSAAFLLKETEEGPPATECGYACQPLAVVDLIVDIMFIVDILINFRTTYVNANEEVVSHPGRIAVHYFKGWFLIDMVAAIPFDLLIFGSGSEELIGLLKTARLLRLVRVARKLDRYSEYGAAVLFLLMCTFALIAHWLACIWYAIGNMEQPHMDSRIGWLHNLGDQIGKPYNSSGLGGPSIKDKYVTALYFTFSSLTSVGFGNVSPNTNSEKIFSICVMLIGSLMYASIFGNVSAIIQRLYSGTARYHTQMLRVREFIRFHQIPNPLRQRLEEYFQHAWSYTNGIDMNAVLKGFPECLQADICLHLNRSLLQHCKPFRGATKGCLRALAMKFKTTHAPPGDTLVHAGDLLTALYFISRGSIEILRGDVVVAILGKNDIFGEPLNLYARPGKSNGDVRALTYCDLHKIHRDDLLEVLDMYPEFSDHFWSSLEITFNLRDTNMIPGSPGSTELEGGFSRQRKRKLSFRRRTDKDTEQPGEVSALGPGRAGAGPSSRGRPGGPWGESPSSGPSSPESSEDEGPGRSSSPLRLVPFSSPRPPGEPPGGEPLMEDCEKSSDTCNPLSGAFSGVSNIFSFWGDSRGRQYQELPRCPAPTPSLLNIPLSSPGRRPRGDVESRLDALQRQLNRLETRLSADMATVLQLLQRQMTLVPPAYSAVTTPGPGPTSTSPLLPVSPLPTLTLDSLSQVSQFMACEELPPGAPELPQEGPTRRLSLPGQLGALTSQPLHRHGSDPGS

The target in one data set is hERG potassium channel (Homo sapiens, UniProt Q12809). As to conditions: Table 6 assay validation (Dorn et al. 2005); read-out: FP IC50; cited from earlier work.
Another data set has as its target hERG channel (Homo sapiens, UniProt Q12809). As to conditions: reported values; read-out: Radioligand* IC50; cited from earlier work.

`CC(C)COCC(CN(Cc1ccccc1)c1ccccc1)N1CCCC1` (centres unmarked) [Bepridil]: the IC50 at hERG potassium channel was 210 nM; at hERG channel, 170 nM.

Broadly, the IC50 is the midpoint of a concentration-inhibition curve.
